Assay results taken from patent US10118927B2, “Substituted piperidin-4-amino-type compounds and uses thereof” (dated 2018).
Only a part of the results on these compounds is given; other tests are left out.

Protein sequences, listed by entry. Tags and fused reporters are not part of them.
UniProt P41146, whole entry: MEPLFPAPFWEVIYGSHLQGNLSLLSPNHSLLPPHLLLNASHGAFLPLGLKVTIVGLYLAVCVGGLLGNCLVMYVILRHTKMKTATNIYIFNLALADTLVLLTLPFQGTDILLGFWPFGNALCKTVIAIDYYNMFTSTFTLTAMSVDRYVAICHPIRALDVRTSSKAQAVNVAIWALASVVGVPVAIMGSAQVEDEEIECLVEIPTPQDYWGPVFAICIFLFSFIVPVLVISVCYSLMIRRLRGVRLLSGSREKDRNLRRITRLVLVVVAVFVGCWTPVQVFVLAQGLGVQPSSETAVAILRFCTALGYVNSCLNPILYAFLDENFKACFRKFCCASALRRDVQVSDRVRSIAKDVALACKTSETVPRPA
UniProt P41143, whole entry: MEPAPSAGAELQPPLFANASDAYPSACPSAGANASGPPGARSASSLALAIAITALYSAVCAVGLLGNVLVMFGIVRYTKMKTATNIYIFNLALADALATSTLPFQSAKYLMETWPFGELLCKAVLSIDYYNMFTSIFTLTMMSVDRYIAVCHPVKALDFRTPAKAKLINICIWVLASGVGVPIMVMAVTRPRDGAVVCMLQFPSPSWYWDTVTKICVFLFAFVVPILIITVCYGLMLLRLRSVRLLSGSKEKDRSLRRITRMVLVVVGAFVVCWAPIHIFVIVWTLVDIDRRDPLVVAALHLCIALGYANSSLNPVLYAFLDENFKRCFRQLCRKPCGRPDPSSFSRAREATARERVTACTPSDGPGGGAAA
UniProt P41145, whole entry: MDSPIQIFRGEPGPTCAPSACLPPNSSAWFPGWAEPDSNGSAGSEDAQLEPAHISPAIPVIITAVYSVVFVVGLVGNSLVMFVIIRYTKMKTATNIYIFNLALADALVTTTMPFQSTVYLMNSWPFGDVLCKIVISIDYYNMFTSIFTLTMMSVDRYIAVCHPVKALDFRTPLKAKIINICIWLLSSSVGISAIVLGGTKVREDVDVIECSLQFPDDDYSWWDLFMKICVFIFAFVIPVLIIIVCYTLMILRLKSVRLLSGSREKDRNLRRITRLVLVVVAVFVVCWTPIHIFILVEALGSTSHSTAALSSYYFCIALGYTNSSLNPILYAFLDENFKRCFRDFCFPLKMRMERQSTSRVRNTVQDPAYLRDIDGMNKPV

Columns and labels:
[1] = molecular target: T1, human opioid receptor-like (ORL-1) (Homo sapiens, UniProt P41146); experiment: In vitro ORL-1 receptor functional assay ([35S]GTPγS binding); details: for EC50: read-out: GTPγS ORL-1 EC50 [mean ± SEM], [35S]GTPγS, HEK-293 membranes; for GTPγS ORL-1 Emax [mean ± SEM]: relative to the effect elicited by nociceptin
[2] = molecular target: T1, human opioid receptor-like (ORL-1); experiment: In vitro ORL-1 receptor binding assay ([3H]-nociceptin displacement); details: read-out: Ki [Average ± Std Deviation] ORL-1; membranes from recombinant HEK-293 cells; 0.1 nM [3H]-nociceptin
[3] = molecular target: delta opioid receptor (Homo sapiens, UniProt P41143); experiment: In vitro delta-opioid receptor binding assay ([3H]-Naltrindole displacement); details: read-out: Ki [Average ± Std Deviation] Opioid Receptor Delta; CHO-K1 membranes; 0.2 nM [3H]-Naltrindole
[4] = molecular target: T2, kappa opioid receptor (Homo sapiens, UniProt P41145); experiment: In vitro kappa-opioid receptor functional assay ([35S]GTPγS); details: read-out: GTPγS Opioid Receptor EC50 Kappa [mean ± SEM]
[5] = molecular target: T2, kappa opioid receptor; experiment: In vitro kappa-opioid receptor binding assay ([3H]-U69,593 displacement); details: read-out: Ki [Average ± Std Deviation] Opioid Receptor Kappa, HEK-293 membranes

## CC(=O)N(c1ccccc1NCC(=O)O)[C@H]1C[C@H]2CCC[C@@H](C1)N2[C@H]1C[C@@H]2CCC[C@@H](C2)C1
[1]
  EC50: 0.683 µM
  GTPγS ORL-1 Emax [mean ± SEM]: 38.25 ± 3.07%
[2]
  Ki: 0.263 µM
[3]
  Ki: > 20 µM

## O=C(O)[C@@H]1CCN(C(=O)N(c2ccccc2)[C@H]2C[C@H]3CCC[C@@H](C2)N3[C@H]2C[C@@H]3CCC[C@@H](C3)C2)C1
[2]
  Ki: 0.78 µM

## O=C(O)[C@H]1CCCN1C(=O)N(c1ccccc1)[C@H]1C[C@H]2CCC[C@@H](C1)N2[C@H]1C[C@@H]2CCC[C@@H](C2)C1
[1]
  EC50: > 20 µM
[2]
  Ki: 0.0326 µM

## O=C(O)C1CCCN1C(=O)N(c1ccccc1)[C@H]1C[C@H]2CCC[C@@H](C1)N2[C@H]1C[C@@H]2CCC[C@@H](C2)C1 (some centres unmarked)
[1]
  EC50: > 20 µM
  GTPγS ORL-1 Emax [mean ± SEM]: 0.5 ± 0.5%
[2]
  Ki: 0.0182 µM

## C[C@@H]1C[C@@H]2C[C@H](C1)C[C@@H](N1[C@@H]3CCC[C@H]1C[C@@H](N(C(=O)C(=O)O)c1ccccc1NC(=O)C(=O)O)C3)C2
[4]
  EC50: > 20 µM
[1]
  EC50: 0.0081 µM
  GTPγS ORL-1 Emax [mean ± SEM]: 31 ± 0.58%
[2]
  Ki: 0.00914 µM
[5]
  Ki: 0.289 µM
[3]
  Ki: > 20 µM

## O=C(O)[C@@H]1CCCN1C(=O)N(c1ccccc1)[C@H]1C[C@H]2CCC[C@@H](C1)N2[C@H]1C[C@@H]2CCC[C@@H](C2)C1
[1]
  EC50: > 20 µM
[2]
  Ki: 0.0676 µM

## O=C(O)C(=O)Nc1ccccc1N(C(=O)C(=O)O)[C@H]1C[C@H]2CCC[C@@H](C1)N2[C@H]1C[C@@H]2CCC[C@@H](C2)C1
[1]
  EC50: 0.0124 µM
  GTPγS ORL-1 Emax [mean ± SEM]: 23 ± 2.68%
[2]
  Ki: 0.0215 µM

## CC(=O)N(c1ccccc1NCC(=O)O)[C@H]1C[C@H]2CCC[C@@H](C1)N2C1CCCCCCC1
[2]
  Ki: > 20 µM

## O=C(O)CC(=O)N(c1ccccc1)C1CCN(C2CCCCCCC2)CC1
[2]
  Ki: 5.61 µM
